Sequences of proteins named here, by UniProt entry; tags and fusion partners are left off. A change or cut given only in a name is not applied to a line headed by its entry.
UniProt Q63447: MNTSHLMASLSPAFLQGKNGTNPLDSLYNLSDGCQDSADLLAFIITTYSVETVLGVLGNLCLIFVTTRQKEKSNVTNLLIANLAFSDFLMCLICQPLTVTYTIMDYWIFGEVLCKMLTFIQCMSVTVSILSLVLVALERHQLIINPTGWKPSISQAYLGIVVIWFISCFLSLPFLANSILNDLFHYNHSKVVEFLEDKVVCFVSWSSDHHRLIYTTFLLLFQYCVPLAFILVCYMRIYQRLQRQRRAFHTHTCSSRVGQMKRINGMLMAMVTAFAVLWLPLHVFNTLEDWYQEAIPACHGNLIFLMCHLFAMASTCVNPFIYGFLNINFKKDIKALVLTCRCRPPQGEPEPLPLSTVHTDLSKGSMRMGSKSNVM
UniProt P50391: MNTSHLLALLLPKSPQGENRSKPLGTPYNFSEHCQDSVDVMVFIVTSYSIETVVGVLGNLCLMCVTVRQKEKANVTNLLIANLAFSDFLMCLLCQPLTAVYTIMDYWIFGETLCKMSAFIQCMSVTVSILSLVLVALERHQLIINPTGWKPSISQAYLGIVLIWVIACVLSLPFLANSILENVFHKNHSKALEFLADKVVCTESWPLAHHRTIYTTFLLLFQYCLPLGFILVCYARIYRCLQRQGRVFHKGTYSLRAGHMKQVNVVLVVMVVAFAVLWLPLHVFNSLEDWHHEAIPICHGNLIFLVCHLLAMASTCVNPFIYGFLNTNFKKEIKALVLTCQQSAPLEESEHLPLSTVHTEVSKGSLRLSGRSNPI
UniProt P49146, whole entry: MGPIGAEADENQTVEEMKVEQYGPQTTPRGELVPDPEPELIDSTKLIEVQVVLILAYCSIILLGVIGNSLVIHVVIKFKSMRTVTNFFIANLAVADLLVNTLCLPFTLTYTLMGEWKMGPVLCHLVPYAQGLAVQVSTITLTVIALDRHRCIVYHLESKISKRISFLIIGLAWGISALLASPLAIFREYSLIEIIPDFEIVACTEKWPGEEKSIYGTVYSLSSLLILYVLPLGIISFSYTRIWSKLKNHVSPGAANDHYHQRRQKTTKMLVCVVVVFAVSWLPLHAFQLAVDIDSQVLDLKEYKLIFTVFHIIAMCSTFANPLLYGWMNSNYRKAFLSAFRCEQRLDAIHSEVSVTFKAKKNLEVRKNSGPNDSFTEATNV
UniProt P25929, whole entry: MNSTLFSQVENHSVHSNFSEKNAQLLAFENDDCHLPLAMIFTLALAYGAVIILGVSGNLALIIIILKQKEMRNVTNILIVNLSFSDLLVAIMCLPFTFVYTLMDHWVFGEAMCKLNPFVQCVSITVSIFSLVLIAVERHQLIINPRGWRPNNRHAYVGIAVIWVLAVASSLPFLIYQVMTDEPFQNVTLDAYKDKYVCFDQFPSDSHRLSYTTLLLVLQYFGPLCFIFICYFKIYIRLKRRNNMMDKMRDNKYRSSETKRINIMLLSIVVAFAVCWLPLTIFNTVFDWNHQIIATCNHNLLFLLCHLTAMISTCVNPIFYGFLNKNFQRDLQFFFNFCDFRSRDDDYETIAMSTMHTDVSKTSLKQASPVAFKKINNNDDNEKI

According to US6913892B1, “Method of obtaining compositions comprising Y4 specific compounds” (H. Lundbeck A/S, priority 1993, dated 2005):

Assays:
[1] = target: T1, rat Y4 receptor (Rattus norvegicus, UniProt Q63447); test: Binding of 125I-PYY and competitive displacement, membranes of COS-7 cells transiently expressing rat Y4 receptors
T1 construct: expressed in transfected cells; host or cells: COS-7

[2] = target: T2, human hp25a (Y4) receptor (Homo sapiens, UniProt P50391); test: Competitive displacement / binding of 125I-PYY, membranes of COS-7 cells transiently expressing hp25a (human Y4) receptors; conditions: for Ki: read-out: Y4 (Ki), Table 3, cloned human Y4 in COS-7, displacement of 125I-PYY
T2 construct: The entire coding region of hp25a (1127 bp); expressed in transfected cells; host or cells: COS-7

[3] = target: T3, human Y2 receptor (Homo sapiens, UniProt P49146); test: Competitive displacement of 125I-PYY, membranes of COS-7 cells transiently expressing human Y2 receptors; type: binding; conditions: read-out: Y2 (Ki); Table 3; cloned human Y2 in COS-7, displacement of 125I-PYY
T3 construct: expressed in transfected cells; host or cells: COS-7

[4] = target: Y1 receptor (Homo sapiens, UniProt P25929); test: Competitive displacement / binding of 125I-PYY, membranes of COS-7 cells transiently expressing human Y1 receptors; design: expressed in transfected cells; host or cells: COS-7; conditions: read-out: Y1 (Ki); Table 3; cloned human Y1 in COS-7, displacement of 125I-PYY
[5] = target: T4, human Y4 receptor (Homo sapiens, UniProt P50391); test: Saturation binding of 125I-PYY to membranes from the NIH-3T3 stable clone expressing human Y4; conditions: read-out: apparent Ki (saturation binding, one-site model)
T4 construct: expressed in transfected cells

Neuropeptide Y [NPY, human]
Ki ([1]; Table 6; COS-7 membranes, displacement of 125I-PYY; read-out: Rat Y4 (Ki)): 1.7 nM

Neuropeptide Y [NPY, porcine]
Ki ([1]; read-out: Rat Y4 (Ki); Table 6; COS-7 membranes, displacement of 125I-PYY): 1.8 nM

Phe-Leu-Arg-Phe-amide
Ki [2]: 750 nM
Ki [3]: > 100000 nM
Ki [4]: 15000 nM

Phe-Met-Arg-Phe-Amide
Ki [2]: 4000 nM
Ki [3]: 75000 nM
Ki [4]: 12000 nM

^125I-PYY
Kd ([2]; hp25a in COS-7, n=4, read-out: apparent Kd (saturation binding, one-site model)): 0.11 ± 0.01 nM
Kd ([1]; rat Y4 in COS-7, radioligand 0.5 pM to […]; read-out: apparent Kd (saturation binding, one-site model)): 0.15 nM
Ki [5]: 0.17 nM

Read-outs that look alike come from different tables or passages of the source.
